In the library only some 13% were active in any assay of this set; here they are far more common.
Sfp inh = inhibitors of Bacillus subtilis Sfp phosphopantetheinyl transferase. Q9F4F7. Biochemical Sfp PPTase activity, qHTS. Potency, µM, for the others: max response, negative = inhibition, most hits filed as inhibitors. actives 3.5% (n = 310,000). AID 1490; active means well fitted inhibition curve with a large enough effect; inconclusive means small, poorly fitted or top-dose-only effect, or another doubt; inactive means no such curve, though single readings can be large or run the other way;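 further: the enzyme is Sfp with the accession as filed and its product quenches rhodamine fluorescence; potency means the concentration at half of the fitted maximal effect; 0% = enzyme reaction without inhibitor and -100% = no enzyme wells; top concentration of the series not given in the record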
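Reaction rates are the 30-min fluorescence difference (ex 525, em 598 nm) in wells containing 15 nM Sfp, 5 uM rhodamine-CoA and 12.5 uM BHQ-2-YbbR at pH 7.6 with 10 mM MgCl2.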
G9a inh = inhibitors of human histone lysine methyltransferase G9a; Q96KQ7; G9a H3K9 monomethylation, AlphaScreen, 2 h; Potency, µM (doses to about 102 µM), inactives show top-dose activity, negative = inhibition, hits mostly inhibitors; 350,000 tested, 8.8% active; AID 504332; also: potency is read from the fitted curve at half-maximal effect; % is scaled to controls: 0 for no effect and ±100 for the full control effect; nearly all actives have a fitted effect of over 75% in size
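Readings reflect AlphaScreen signal from monomethyl-H3K9 antibody detection. HMT at 20 nM; substrate b-H3K9 500 nM; cofactor SAM 20 uM; 2 h RT reaction; compounds tested as titrations in qHTS with 15 min preincubation.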
JMJD2E inh = inhibitors of human JMJD2E histone demethylase; JMJD2E catalytic domain, FDH-coupled NADH fluorescence (FDH is formaldehyde dehydrogenase); Potency, µM (series often up to 57.1 µM), without a hit: top-dose activity change, negative = inhibition, usual class: inhibitors; 230,000 tested, 1.6% active; active = well fitted inhibition curve with a large enough effect, not every such curve was filed as active; inconclusive = small, poorly fitted or top-dose-only effect, or another doubt; inactive = no such curve, though single readings can be large or run the other way;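 also: potency is read from the fitted curve at half-maximal effect; 0% = wells with enzyme and -100% = buffer wells without enzyme; nearly all actives have a fitted effect of over 50% in size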
Lamin A splicing = changes lamin A minigene splicing in HeLa cells; HeLa LMNA splicing GFP/RFP minigene ratio, 48 h; Potency, µM (titrated, usually from 46.1 µM), without a hit: at the top dose ratio change, negative = inhibition, most hits filed as inhibitors; 200,000 tested, 0.01% active; AID 1487; active = well fitted inhibition curve with a large enough effect in the signal ratio, with a control signal flat, not every such curve was filed as active; inconclusive = small, poorly fitted or top-dose-only effect, or effect the other way, or a change in a side signal; the % refers to the signal ratio; also: potency is read from the fitted curve at half-maximal effect; % is scaled to controls: 0 for no effect and ±100 for the full control effect
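Read-out is the ratio of GFP to DsRed2 object intensity, acquired by 488 nm laser-scanning cytometry on HeLa lamin A-EGFP minigene reporter cells. Compound incubation 48 hrs at 37 °C in Opti-MEM with 2% FBS; DMSO 0.5% final.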
ALDH1A1 inh-1 = ALDH1A1 (human) enzyme inhibition; Purified ALDH1A1, NADH fluorescence, propionaldehyde substrate; Potency, µM (top dose mostly 75.3 µM), without a hit: top-dose activity, negative = inhibition, usual class: inhibitors; 220,000 tested, 7.3% active; AID 1030; active = well fitted inhibition curve with a large enough effect, not every such curve was filed as active; inconclusive = small, poorly fitted or top-dose-only effect, or another doubt; inactive = no such curve, though single readings can be large or run the other way;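 also: potency is read from the fitted curve at half-maximal effect; plate controls were no enzyme wells and a reference inhibitor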
miR-21 reporter = raises the signal of a miR-21 reporter; AID 2288; 340,000 tested, under 10 active; Potency, µM (doses to about 38.3 µM), inactives show at the top dose reporter change, positive = more light; HeLa miR-21 FLuc reporter, luciferase, 48 h; active = well fitted rising curve with a large enough effect; inconclusive = small, poorly fitted or top-dose-only effect; inactive = no such curve, though single readings can be large or run the other way;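 note: % of control where 0% means no effect; miR-21 action dims this reporter so a rising signal means less miR-21 action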
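Luminescence from a firefly luciferase reporter carrying a miR-21 binding site downstream, stably expressed under a CMV promoter in HeLa cells that make miR-21 endogenously, reports miRNA modulation after 48 h compound exposure up to approximately 40uM final.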
ALDH1A1 inh-2 = Confirms inhibition of human ALDH1A1 with counterscreen | shares compounds with ALDH1A1 inh-1 | purified ALDH1A1, NADH fluorescence, propionaldehyde/NAD+ | Potency, µM (titrated, usually from 57.1 µM), without a hit: at the top dose activity change, negative = inhibition, hits mostly inhibitors | 90 tested, 90% active | AID 493210; calls by dose curve
Sfp inh conf = confirmation of Bacillus subtilis Sfp PPTase inhibitors. shares compounds with Sfp inh. Potency, µM (series often up to 114 µM), for the others: at the highest dose activity change, negative = inhibition, actives largely listed as inhibitors. 380 tested, 79% active. AID 2701. Sfp PPTase enzymatic assay, qHTS titration;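 also: potency is read from the fitted curve at half-maximal effect; plate controls were uninhibited Sfp reaction for no effect and no enzyme control for full effect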
* marks the source's active call; other numbers are inactive results; ? = inconclusive; nt = no result; [ ] = dose if it differs, or a comment. Unless noted, calls follow the shape of the dose curve; as a rule, active = well fitted curve in the direction sought with a large enough effect; inconclusive = small, poorly fitted or top-dose-only effect, or another doubt; inactive = no such curve, though single readings can be large; an effect the other way counts as inactive or inconclusive.

SMILES	Sfp inh	G9a inh	JMJD2E inh	Lamin A splicing	ALDH1A1 inh-1	miR-21 reporter	ALDH1A1 inh-2	others
COC(=O)c1ccc2c(=O)n(CC3CCCO3)c(SCC(=O)Nc3ccc(OC)cc3OC)nc2c1 (stereo not drawn)	?	-7%[59 µM]	0%	nt	nt	2%	nt
CCOc1ccccc1N(C)C(=O)c1cc(S(=O)(=O)NCCc2ccc(Cl)cc2)ccc1F	nt	1%[59 µM]	nt	?	nt	24%	nt
O=C(CC1(O)C(=O)N(Cc2ccccc2)c2ccccc21)c1ccncc1 (stereo not drawn)	-7%	-22%[12.7 µM]	-1%	4%	0.071µM*	3%	0.25µM*
O=C(/C=C/C=C/c1ccccc1)CC1(O)C(=O)N(CCc2ccccc2)c2ccccc21 (stereo not drawn)	-35%	nt	-9%	?	?	1%	nt
Cc1ccc(NC(=O)c2sc(-n3nc(C)c(Cc4ccc5c(c4)OCO5)c3C)nc2C)cc1C	nt	5%[59 µM]	nt	11%[46 µM]	nt	-2%	nt
COC(=O)c1ccsc1NC(=O)CSc1nnnn1-c1ccccc1SC	13%	0%[12.7 µM]	-4%	2%	0.13µM*	-6%	0.32µM*
O=C(CCNc1ccc(Cc2ccncc2)cc1)c1cccc([N+](=O)[O-])c1	13%	8.9µM*	-8%	?	0.4µM*	-1%	0.5µM*
O=C(Nc1cccc([N+](=O)[O-])c1)c1ccncc1	14%	10%[59 µM]	5%	-4%	-11%	-2%	nt
COc1ccc(C(=O)CCNc2ccc3c(c2)OCCO3)cc1	-8%	3.2µM*	-9%	?	0.32µM*	-24%	4µM*
O=C(CCNc1ccccc1)c1ccc2c(c1)OCO2	3%	?	-1%	?	0.89µM*	-54%	2.2µM*
COc1ccc(-n2c(Cc3cccs3)nnc2SCC(=O)Nc2ccc3c(c2)OCCO3)cc1	1%	?	0%	12%	2µM*	8%	0.56µM*
Cc1ccc(-n2c(SCC(=O)Nc3ccc4c(c3)OCO4)nnc2-c2cccs2)cc1	-10%	?	?	12%	-3%	-2%	nt
Cc1cccc2c1N(CCCOc1ccccc1)C(=O)C2=O	2%	71µM*	3%	-9%	0.035µM*	-10%	0.045µM*
CO/N=C(\C(=O)N[C@@H]1C(=O)N2C(C(=O)[O-])=C(C[N+]3(C)CCCC3)CS[C@@H]12)c1csc(N)n1	-23%	-43%[12.7 µM]	-8%[25.5 µM]	-5%	-4%[20.9 µM]	nt	nt
CO/N=C(\C(=O)NC1C(=O)N2C(C(=O)OCOC(=O)C(C)(C)C)=C(/C=C\c3scnc3C)CSC12)c1csc(N)n1 (stereo not drawn)	-66%	-36%[2.33 µM]	-7%	nt	0.35µM*	nt	0.79µM*
Cc1ccc(S(=O)(=O)N[C@@H](Cc2ccccc2)C(=O)CCl)cc1	0%	-35%[59 µM]	-2%	?	0.79µM*	?	0.45µM*
Cc1ccc(S(=O)(=O)NC(Cc2ccccc2)C(=O)NN)cc1 (stereo not drawn)	3%	nt	nt	nt	nt	0%	nt
C[N+](C)(C)CCC(=O)c1cccc2ccccc12	18µM*	0.5µM*	?	?	0.071µM*	nt	0.035µM*
COc1ccc(OC)c(-n2nnnc2SCC(=O)O)c1	-5%	11%	1%	1%	-2%	0%	nt
COc1ccc(OC)c(-n2nnnc2SCC(=O)Nc2nc(C)c(C)s2)c1	8%	-10%[2.33 µM]	0%	6%	?	-8%	1.8µM*
O=C(CSc1nc2ccc(S(=O)(=O)N3CCOCC3)cc2[nH]1)N1CCOCC1	6.3µM*	1.8µM*	-3%	-1%	3.5µM*	-1%	nt	Sfp inh conf=3.7µM*

Of the compounds above, these have a halogen:
SMILES	Sfp inh	G9a inh	JMJD2E inh	Lamin A splicing	ALDH1A1 inh-1	miR-21 reporter	ALDH1A1 inh-2	others
CCOc1ccccc1N(C)C(=O)c1cc(S(=O)(=O)NCCc2ccc(Cl)cc2)ccc1F	nt	1%[59 µM]	nt	?	nt	24%	nt
Cc1ccc(S(=O)(=O)N[C@@H](Cc2ccccc2)C(=O)CCl)cc1	0%	-35%[59 µM]	-2%	?	0.79µM*	?	0.45µM*

Quoted at random: two compounds from above, in no set order.
SMILES	Sfp inh	G9a inh	JMJD2E inh	Lamin A splicing	ALDH1A1 inh-1	miR-21 reporter	ALDH1A1 inh-2	others
O=C(CCNc1ccccc1)c1ccc2c(c1)OCO2	3%	?	-1%	?	0.89µM*	-54%	2.2µM*
O=C(Nc1cccc([N+](=O)[O-])c1)c1ccncc1	14%	10%[59 µM]	5%	-4%	-11%	-2%	nt

From PubChem BioAssay
